Measurements taken from PubChem BioAssay (NCI).
This is a selection; strong and weak results do not stand in their true shares.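 For each line, cells grew in 96-well plates with the test compound present at a single concentration for 48 hours.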 Calls of active or inactive are those of the source. Rule for the calls: active = growth percent below 10; inactive = the rest.

Experiments:
Test in all cases: NCI-60 one-dose screen, 48 h (100 = growth as untreated, 0 = no growth, -100 = all killed)
Settings in all cases: 10 µM
[1] = test system: NCI-H23 lung
[2] = test system: NCI-H226 lung
[3] = test system: NCI-H322M lung
[4] = test system: HOP-62 NSCLC
[5] = test system: NCI-H460 lung
[6] = test system: HOP-92 NSCLC
[7] = test system: NCI-H522 lung
[8] = test system: A549/ATCC NSCLC
[9] = test system: 786-0 renal
[10] = test system: COLO 205 colon
[11] = test system: DU-145 prostate
[12] = test system: K-562 leukemia
[13] = test system: MALME-3M melanoma
[14] = test system: MDA-MB-231 breast
[15] = test system: RXF 393 renal
[16] = test system: SF-268 CNS
[17] = test system: SF-295 CNS
[18] = test system: SF-539 CNS
[19] = test system: UACC-257 melanoma
[20] = test system: M14 melanoma
[21] = test system: HCT-15 colon
[22] = test system: HT29 colon
[23] = test system: SNB-75 CNS
[24] = test system: SNB-19 CNS
[25] = test system: U251 CNS
[26] = test system: PC-3 prostate
[27] = test system: SK-MEL-5 melanoma
[28] = test system: UACC-62 melanoma
[29] = test system: LOX IMVI melanoma
[30] = test system: SK-MEL-28 melanoma
[31] = test system: SK-MEL-2 melanoma
[32] = test system: EKVX NSCLC
[33] = test system: SN12C renal
[34] = test system: UO-31 renal
[35] = test system: TK-10 renal
[36] = test system: ACHN renal
[37] = test system: CAKI-1 renal
[38] = test system: A498 renal
[39] = test system: HL-60(TB) leukemia
[40] = test system: CCRF-CEM leukemia
[41] = test system: MOLT-4 leukemia
[42] = test system: RPMI-8226 leukemia
[43] = test system: OVCAR-8 ovarian
[44] = test system: OVCAR-5 ovarian
[45] = test system: OVCAR-4 ovarian
[46] = test system: SK-OV-3 ovarian
[47] = test system: IGROV1 ovarian
[48] = test system: OVCAR-3 ovarian
[49] = test system: HS 578T breast
[50] = test system: NCI/ADR-RES ovarian
[51] = test system: T-47D breast
[52] = test system: BT-549 breast
[53] = test system: MDA-MB-435 melanoma
[54] = test system: SW-620 colon
[55] = test system: MCF7 breast
[56] = test system: HCT-116 colon
[57] = test system: HCC-2998 colon
[58] = test system: KM12 colon

Measured: growth

CN(CCCl)CCCl
inactive: [1] 18.9% | [2] 66.5% | [3] 90.7% | [4] 50.2% | [8] 38% | [10] 16.2% | [11] 17.6% | [12] 58.5% | [13] 10.7% | [14] 85.7% | [16] 31.7% | [17] 49% | [19] 57% | [20] 32% | [21] 44.7% | [22] 28.2% | [23] 67.5% | [24] 73.4% | [25] 38.9% | [26] 64% | [27] 68.2% | [28] 43.6% | [29] 22.7% | [30] 77.8% | [31] 105% | [32] 105% | [33] 20.9% | [34] 24.9% | [35] 35.3% | [38] 75.5% | [40] 11% | [42] 34% | [43] 69.7% | [44] 84.6% | [45] 74% | [46] 69.8% | [47] 51.4% | [49] 102% | [50] 59.1% | [52] 56% | [53] 75.3% | [54] 43.3% | [55] 33.9% | [56] 33.8% | [57] 51.1% | [58] 64.9%
active: [5] 3.06% | [6] -14% | [7] -85.2% | [9] 9.71% | [15] 6.43% | [18] 3.63% | [36] -7.03% | [37] -21.8% | [39] -17.5% | [41] -3.56% | [48] 2.04% | [51] 9.36%
